Values quoted from earlier work in patent publication US20040247524A1, “Method of treatment of an inflammatory disorder with a Vanin-1 antagonist” (priority 2003, published 2004).

System: Vanin-1
Conditions: cited from earlier work

CC(C)(CO)[C@@H](O)C(=O)NCCC(=O)NCCSSCCNC(=O)CCNC(=O)[C@H](O)C(C)(C)CO [pantethine]
type of Vanin-1 (pantetheinase) inhibition: reversible inhibition
